## scFv variants of Ab-91 (heavy chain) against a SARS-CoV-2 spike peptide

From the AlphaSeq antibody data of Engelhart et al. 2022 (doi:10.1038/s41597-022-01779-4), copy in the FLAb collection.

Binding partner: SARS-CoV-2 spike HR2 peptide, sequence PDVDLGDISGINAS.

The variants keep the light chain, the linker and the frameworks of Ab-91 (scFv order VL, a 15-residue (Gly4Ser)3 linker, VH).
VL: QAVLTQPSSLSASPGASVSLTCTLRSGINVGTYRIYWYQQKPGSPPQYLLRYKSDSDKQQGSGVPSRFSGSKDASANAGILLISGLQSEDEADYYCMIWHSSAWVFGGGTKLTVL
VH: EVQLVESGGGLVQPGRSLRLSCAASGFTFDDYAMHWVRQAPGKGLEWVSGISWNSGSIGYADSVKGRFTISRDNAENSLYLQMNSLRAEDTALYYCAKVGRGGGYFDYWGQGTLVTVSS

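Phage display of a naive human antibody library on the peptide gave the parent. Variants in AAYL51 differ from the parent at up to three CDR positions; double and triple changes were sampled at random. The scFvs were displayed on barcoded MATa yeast, the peptide on MATalpha yeast. After mating in shaken culture at 30 °C for 16 h, diploids were selected and their barcode pairs sequenced. Read counts were normalised to the haploid input and turned into Kd by a linear fit to BCL2-family pairs of known affinity, for each replicate. There are three technical replicates.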

Variants are written as CDR1, CDR2 and CDR3 of the heavy chain (limits as in the source). Parent: GFTFDDYAMH, GISWNSGSIGYADSVK, VGRGGGYFDY. Scale: log10 of Kd in nM, estimated from mating counts; low values are strong binders. A mean of the replicates is given; it leaves out those without a signal. "nd" marks a missing value. The strain was present, yet no cells mated with the target were sequenced in that replicate, which points to weak or no binding. For reference, the parent read 1.86 as the reference entry and 0.88 as a member of this library.

{"CDR-H1": "GFTFDDYAMH", "CDR-H2": "GISWRSGSGGYAKSVK", "CDR-H3": "VGRGGGYFDY", "log10 Kd (nM) by replicate": "5.02 / 6.05 / nd", "mean log10 Kd (nM)": "5.54", "control signals": "4/9 (5.05)"}
{"CDR-H1": "GFTFDGYAMH", "CDR-H2": "GIFWNSGSIHYADSVK", "CDR-H3": "VGRGGGYFDY", "log10 Kd (nM) by replicate": "4.97 / 6.58 / nd", "mean log10 Kd (nM)": "5.77", "control signals": "5/9 (4.54)"}
{"CDR-H1": "GFIFDDYAMH", "CDR-H2": "MISWNSGSIGYADSVK", "CDR-H3": "VGREGGYFDY", "log10 Kd (nM) by replicate": "nd / 4.87 / 3.83", "mean log10 Kd (nM)": "4.35", "control signals": "2/9 (4.63)"}
{"CDR-H1": "GFTFDDYAMH", "CDR-H2": "GISWNSGSIGYADSVK", "CDR-H3": "VERGGGYLDY", "log10 Kd (nM) by replicate": "nd / 4.35 / nd", "mean log10 Kd (nM)": "4.35", "control signals": "2/9 (3.85)"}
{"CDR-H1": "GFQFDDKAMH", "CDR-H2": "GISWNSGSIGYADSHK", "CDR-H3": "VGRGGGYFDY", "log10 Kd (nM) by replicate": "nd / nd / nd", "mean log10 Kd (nM)": "nd", "control signals": "0/9"}
{"CDR-H1": "GFTFDDYALH", "CDR-H2": "GISWNSSSIGYADSVS", "CDR-H3": "VGRGGGYFDY", "log10 Kd (nM) by replicate": "2.96 / nd / nd", "mean log10 Kd (nM)": "2.96", "control signals": "1/9 (3.47)"}
{"CDR-H1": "GFTFDDYNMH", "CDR-H2": "GISWNSGSIGYADSRK", "CDR-H3": "VGRGGGYDDY", "log10 Kd (nM) by replicate": "nd / nd / nd", "mean log10 Kd (nM)": "nd", "control signals": "0/9"}
{"CDR-H1": "GFTFNDYAMH", "CDR-H2": "GISSNSGSIGYADSVK", "CDR-H3": "VGRGGGYRDY", "log10 Kd (nM) by replicate": "4.85 / 4.73 / nd", "mean log10 Kd (nM)": "4.79", "control signals": "2/9 (4.55)"}
{"CDR-H1": "TFTFDDYAMH", "CDR-H2": "GISWNSGSIGYPDSVK", "CDR-H3": "VGMGGGYFDY", "log10 Kd (nM) by replicate": "5.23 / nd / nd", "mean log10 Kd (nM)": "5.23", "control signals": "3/9 (4.92)"}
{"CDR-H1": "GDTFDDYAMH", "CDR-H2": "GISCNSGSIGYADSVK", "CDR-H3": "VGRGGGYFDF", "log10 Kd (nM) by replicate": "3.86 / nd / nd", "mean log10 Kd (nM)": "3.86", "control signals": "2/9 (4.00)"}
{"CDR-H1": "GFTFDDYAMH", "CDR-H2": "GISWNSGSAGYFDSVK", "CDR-H3": "VGRGGGYFDM", "log10 Kd (nM) by replicate": "2.28 / 2.25 / 2.08", "mean log10 Kd (nM)": "2.20", "control signals": "0/9"}
{"CDR-H1": "EFTKDDYAMH", "CDR-H2": "GISWNSGSIGYADSVK", "CDR-H3": "VGRGGGYFDH", "log10 Kd (nM) by replicate": "nd / nd / nd", "mean log10 Kd (nM)": "nd", "control signals": "1/9 (5.31)"}
{"CDR-H1": "GFWMDDYAMH", "CDR-H2": "GISWNSGSIGYADSVK", "CDR-H3": "VHRGGGYFDY", "log10 Kd (nM) by replicate": "1.84 / 1.77 / 0.89", "mean log10 Kd (nM)": "1.50", "control signals": "0/9"}
{"CDR-H1": "GFTFKDYAMH", "CDR-H2": "GISWNSWSIGYADSVK", "CDR-H3": "VGRGGGYFDY", "log10 Kd (nM) by replicate": "1.19 / 1.41 / 0.82", "mean log10 Kd (nM)": "1.14", "control signals": "1/9 (2.95)"}
{"CDR-H1": "GFTFDDPAMW", "CDR-H2": "GISWNSGSIGYADSVK", "CDR-H3": "VGRGGGYFDT", "log10 Kd (nM) by replicate": "5.52 / 4.99 / nd", "mean log10 Kd (nM)": "5.26", "control signals": "1/9 (4.38)"}
{"CDR-H1": "GFTFDDYAMH", "CDR-H2": "GISWNSGTIGYADIVK", "CDR-H3": "VGRGGDYFDY", "log10 Kd (nM) by replicate": "3.95 / 5.10 / 5.82", "mean log10 Kd (nM)": "4.96", "control signals": "5/9 (5.48)"}
{"CDR-H1": "QFTFDDYAMH", "CDR-H2": "GISWNSGSIGYADSVK", "CDR-H3": "VGRGGGYFDY", "log10 Kd (nM) by replicate": "nd / nd / nd", "mean log10 Kd (nM)": "nd", "control signals": "0/9"}
{"CDR-H1": "GFTFDDYAMH", "CDR-H2": "GISMNSGSIGYADSVK", "CDR-H3": "VGRGGGYFDY", "log10 Kd (nM) by replicate": "nd / nd / nd", "mean log10 Kd (nM)": "nd", "control signals": "0/9"}
{"CDR-H1": "GFWFDDYAMH", "CDR-H2": "GISWKSGSIGYADSVK", "CDR-H3": "VGRGGGYFDY", "log10 Kd (nM) by replicate": "nd / nd / nd", "mean log10 Kd (nM)": "nd", "control signals": "0/9"}
{"CDR-H1": "GFTFTDYAMH", "CDR-H2": "GISWNSGKIGYADSVK", "CDR-H3": "VGSGGGYFDY", "log10 Kd (nM) by replicate": "3.55 / 3.57 / 4.03", "mean log10 Kd (nM)": "3.72", "control signals": "7/9 (4.39)"}
{"CDR-H1": "GFDFDDYAMH", "CDR-H2": "GISYNSGSIGYADSYK", "CDR-H3": "VGRGGGYFDY", "log10 Kd (nM) by replicate": "1.19 / 1.23 / 0.77", "mean log10 Kd (nM)": "1.06", "control signals": "7/9 (4.96)"}
{"CDR-H1": "GFTFDDYAMM", "CDR-H2": "GISWNSGSIGYADSVK", "CDR-H3": "VGRGGTYFVY", "log10 Kd (nM) by replicate": "nd / nd / nd", "mean log10 Kd (nM)": "nd", "control signals": "1/9 (4.09)"}
{"CDR-H1": "GFTFDTYTMH", "CDR-H2": "GISWNSGSIGYADSVK", "CDR-H3": "VGRGGGYSDY", "log10 Kd (nM) by replicate": "nd / nd / nd", "mean log10 Kd (nM)": "nd", "control signals": "0/9"}
{"CDR-H1": "GFTFCDYAMH", "CDR-H2": "GIEWNSGSIGYADSVK", "CDR-H3": "VGRGGGYFCY", "log10 Kd (nM) by replicate": "4.89 / 5.46 / 5.62", "mean log10 Kd (nM)": "5.32", "control signals": "5/9 (5.00)"}
{"CDR-H1": "GFTFDDYTMH", "CDR-H2": "GISWWSGSIGYADSVK", "CDR-H3": "VGRGGGYFKY", "log10 Kd (nM) by replicate": "nd / 5.44 / nd", "mean log10 Kd (nM)": "5.44", "control signals": "0/9"}
{"CDR-H1": "GFTFDDYAMH", "CDR-H2": "GISWNSGSIGYADCTK", "CDR-H3": "VNRGGGYFDY", "log10 Kd (nM) by replicate": "4.82 / nd / nd", "mean log10 Kd (nM)": "4.82", "control signals": "4/9 (4.75)"}

Extract of 2 entries:

{"CDR-H1": "GFWFDDYAMH", "CDR-H2": "GISWKSGSIGYADSVK", "CDR-H3": "VGRGGGYFDY", "log10 Kd (nM) by replicate": "nd / nd / nd", "mean log10 Kd (nM)": "nd", "control signals": "0/9"}
{"CDR-H1": "GFTFDDPAMW", "CDR-H2": "GISWNSGSIGYADSVK", "CDR-H3": "VGRGGGYFDT", "log10 Kd (nM) by replicate": "5.52 / 4.99 / nd", "mean log10 Kd (nM)": "5.26", "control signals": "1/9 (4.38)"}

Three control strains display no target. For library AAYL51, 21% of the pairings with them gave a signal, with a median of 4.54 and one signal in twenty below 3.26, so weak values seen in few replicates may be background. The control count says in how many pairings with the empty strains this scFv gave a signal, with their mean in brackets.